The data set in a line: Solubility in water, checked by filtration on a 0.45 μm syringe filter. The settings on record: obtained without NaI (example 3), dry isolated powder after crystallization, 20-25° C.; not soluble at 5 mg/ml or 2.5 mg/ml.

As to “1H-benz[e]indole, 2-[7-[1,3-dihydro-1,1-dimethyl-3-(4-sulfobutyl)-2H-benz[e]indol-2-ylidene]-1,3,5-heptatrienyl]-1,1-dimethyl-3-(4-sulfobutyl) hydroxide, inner salt, sodium salt [compound of formula (I)]”, the solubility in water is below 2500 µg/mL.

These data come from patent US20240158639A1, “PROCESS FOR PREPARING INDOCYANINE GREEN” (ICROM Srl, priority 2021, published 2024).
